One experiment addresses M3 (Homo sapiens, UniProt P20309). As to the kind of experiment: M3 functional activation. The following applies: read-out: M3 EC50. The class given is cell-based.
A further experiment addresses M1 (Rattus norvegicus, UniProt P08482). As to the kind of experiment: M1 functional activation, concentration-response. The class given is cell-based. The settings on record: activation of M1 relative to 100% response of CCh.

Amino acid sequences for entries named in this document (tags omitted). A change or cut given only in a name is not applied to a line headed by its entry.
UniProt P20309, whole entry: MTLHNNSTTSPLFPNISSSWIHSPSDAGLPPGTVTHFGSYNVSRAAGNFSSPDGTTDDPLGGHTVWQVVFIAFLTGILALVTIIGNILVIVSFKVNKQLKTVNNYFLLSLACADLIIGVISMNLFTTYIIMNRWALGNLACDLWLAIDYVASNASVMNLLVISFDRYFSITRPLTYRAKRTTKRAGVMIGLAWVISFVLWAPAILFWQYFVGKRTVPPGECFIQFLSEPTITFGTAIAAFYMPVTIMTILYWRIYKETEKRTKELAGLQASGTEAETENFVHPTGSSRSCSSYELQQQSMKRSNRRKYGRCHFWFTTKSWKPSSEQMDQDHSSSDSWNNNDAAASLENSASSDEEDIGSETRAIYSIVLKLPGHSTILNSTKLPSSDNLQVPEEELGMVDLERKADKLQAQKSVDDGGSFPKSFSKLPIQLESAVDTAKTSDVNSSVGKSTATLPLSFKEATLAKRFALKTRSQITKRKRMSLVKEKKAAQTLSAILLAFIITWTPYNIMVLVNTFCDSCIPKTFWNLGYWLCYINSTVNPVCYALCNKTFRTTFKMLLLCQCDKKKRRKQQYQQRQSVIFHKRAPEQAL
UniProt P08482: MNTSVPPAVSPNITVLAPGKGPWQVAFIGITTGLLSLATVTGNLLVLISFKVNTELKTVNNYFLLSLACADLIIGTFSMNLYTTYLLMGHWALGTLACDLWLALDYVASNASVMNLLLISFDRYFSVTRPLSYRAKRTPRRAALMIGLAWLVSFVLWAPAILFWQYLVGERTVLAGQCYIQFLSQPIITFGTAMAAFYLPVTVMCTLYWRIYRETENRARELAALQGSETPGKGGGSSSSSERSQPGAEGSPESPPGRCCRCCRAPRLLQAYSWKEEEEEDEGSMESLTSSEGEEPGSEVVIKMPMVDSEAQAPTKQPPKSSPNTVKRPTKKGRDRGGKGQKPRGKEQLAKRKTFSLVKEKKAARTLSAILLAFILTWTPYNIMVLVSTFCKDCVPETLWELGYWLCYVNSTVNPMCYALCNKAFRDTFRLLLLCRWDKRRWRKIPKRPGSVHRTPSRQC

The structures appear in SMILES notation.

With `CCOC(=O)N1CCC(N2CCC(n3c(=O)[nH]c4ccccc43)CC2)CC1` [ethyl carbamate congener], at M3, the EC50 amounted to 0.113 µM. Besides, the “%CCh Max” value on M1 amounted to 82.6%.

What is called EC50 is the midpoint of the concentration-response curve.

For the origin of these results see article PMC3177607 (Bioorganic & medicinal chemistry letters, 2008).
